Experimental data as given in patent publication US8524717B2, “Oxidase inhibitors and their use” (Oryzon Genomics, S.A., priority 2008, dated 2013).
Where a name gives a salt, the structure may show the parent alone.

By UniProt entry, the sequences of proteins in these tests, tags left out.
UniProt P21397, whole entry: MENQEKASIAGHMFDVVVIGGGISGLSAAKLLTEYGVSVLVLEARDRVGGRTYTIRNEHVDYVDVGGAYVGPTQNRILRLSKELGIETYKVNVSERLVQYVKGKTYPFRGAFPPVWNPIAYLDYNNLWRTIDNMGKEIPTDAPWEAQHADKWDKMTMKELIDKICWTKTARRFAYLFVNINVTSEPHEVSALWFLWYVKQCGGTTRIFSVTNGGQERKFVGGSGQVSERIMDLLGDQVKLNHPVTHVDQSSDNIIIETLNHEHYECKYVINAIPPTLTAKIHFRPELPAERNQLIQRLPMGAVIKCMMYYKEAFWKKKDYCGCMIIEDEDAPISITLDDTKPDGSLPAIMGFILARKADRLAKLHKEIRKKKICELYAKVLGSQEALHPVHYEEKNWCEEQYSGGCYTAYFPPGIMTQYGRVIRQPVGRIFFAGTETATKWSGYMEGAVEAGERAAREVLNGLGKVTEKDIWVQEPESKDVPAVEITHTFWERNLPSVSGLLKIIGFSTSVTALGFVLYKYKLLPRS
UniProt P27338, whole entry: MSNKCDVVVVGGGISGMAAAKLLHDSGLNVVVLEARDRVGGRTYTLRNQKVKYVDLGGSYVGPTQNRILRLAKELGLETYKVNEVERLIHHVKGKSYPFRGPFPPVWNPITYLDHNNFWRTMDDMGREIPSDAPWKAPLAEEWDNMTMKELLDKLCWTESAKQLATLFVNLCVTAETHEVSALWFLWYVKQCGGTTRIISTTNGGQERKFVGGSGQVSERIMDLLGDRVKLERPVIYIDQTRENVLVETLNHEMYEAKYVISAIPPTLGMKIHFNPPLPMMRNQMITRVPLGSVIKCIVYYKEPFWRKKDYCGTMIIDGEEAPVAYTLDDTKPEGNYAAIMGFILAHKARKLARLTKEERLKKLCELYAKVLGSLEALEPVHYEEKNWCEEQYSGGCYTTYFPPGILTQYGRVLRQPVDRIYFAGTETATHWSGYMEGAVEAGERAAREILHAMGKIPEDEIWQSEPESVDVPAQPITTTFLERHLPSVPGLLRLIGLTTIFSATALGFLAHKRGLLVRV

How the values were obtained:
MAO-A = MAO-A (Homo sapiens (Human), UniProt P21397); assay: Monoamine oxidase assay (kynuramine to 4-hydroxyquinoline fluorescence), MAO-A; format: biochemical; conditions: Table 1
MAO-B = MAO-B (Homo sapiens (Human), UniProt P27338); assay: Monoamine oxidase assay (kynuramine to 4-hydroxyquinoline fluorescence), MAO-B; format: biochemical; conditions: Table 1

Row | Structure (SMILES) | Ki (MAO-A) [µM] | Ki (MAO-B) [µM]
1 | CC(C)(C)NC(=O)CN[C@H]1C[C@@H]1c1ccccc1 (relative stereo) [Example 6, N-(tert-butyl)-2-{[(trans)-2-phenylcyclopropyl]amino}acetamide] | > 50 | –
2 | CN1CCN(C(=O)CN[C@H]2C[C@@H]2c2ccc(C3CC3)cc2)CC1 (relative stereo) [Example 60, 2-((trans)-2-(4-cyclopropylphenyl)cyclopropylamino)-1-(4-methylpiperazin-1-yl)ethanone dihydrochloride] | – | 42.1
3 | CN1CCN(C(=O)CN[C@H]2C[C@@H]2c2ccccc2)CC1 (relative stereo) [Example 22, 1-(4-methylpiperazin-1-yl)-2-((trans)-2-phenylcyclopropylamino)ethanone] | – | 31
4 | CN1CCN(C(=O)CN[C@H]2C[C@@H]2c2ccc(-c3cccc(C#N)c3)cc2)CC1 (relative stereo) [Example 40, 4′-((trans)-2-(2-(4-methylpiperazin-1-yl)-2-oxoethylamino)cyclopropyl)biphenyl-3-carbonitrile dihydrochloride] | – | 18.2
5 | CN1CCN(C(=O)CN[C@H]2C[C@@H]2c2ccc(-c3ccccc3C(F)(F)F)cc2)CC1 (relative stereo) [Example 50, 1-(4-methylpiperazin-1-yl)-2-((trans)-2-(2′-(trifluoromethyl)biphenyl-4-yl)cyclopropylamino)ethanone dihydrochloride] | 25 | –
6 | CN1CCN(C(=O)CN[C@H]2C[C@@H]2c2ccc(OCCc3ccccc3)cc2)CC1 (relative stereo) [Example 34, 1-(4-methylpiperazin-1-yl)-2-((trans)-2-(4-phenethoxyphenyl)cyclopropylamino)ethanone] | 39 | 24.7

The remaining lines, values ahead:

Row | Ki (MAO-A) [µM] | Ki (MAO-B) [µM] | Structure (SMILES)
7 | 8.6 | – | CN1CCN(C(=O)CN[C@H]2C[C@@H]2c2ccc(-c3cc(Cl)cc(Cl)c3)cc2)CC1 (relative stereo) [Example 45, 2-((trans)-2-(3′,5′-dichlorobiphenyl-4-yl)cyclopropylamino)-1-(4-methylpiperazin-1-yl)ethanone dihydrochloride]
8 | 4.47 | 1.25 | O=C(CN[C@H]1C[C@@H]1c1ccc(OCc2ccccc2)cc1)NC1CC1 (relative stereo) [Example 27, 2-((trans)-2-(4-(benzyloxy)phenyl)cyclopropylamino)-N-cyclopropylacetamide]
9 | – | 26.1 | CN1CCN(C(=O)CN[C@H]2C[C@@H]2c2ccc(-c3cccc(C(F)(F)F)c3)cc2)CC1 (relative stereo) [Example 43, 1-(4-methylpiperazin-1-yl)-2-((trans)-2-(3′-(trifluoromethyl)biphenyl-4-yl)cyclopropylamino)ethanone dihydrochloride]
10 | – | 40.4 | CN1CCN(C(=O)CN[C@H]2C[C@@H]2c2ccc(-c3ccc(F)cc3)cc2)CC1 (relative stereo)
